# Values quoted from earlier work in article PMC3290704 (Journal of the American Chemical Society, 2012).
# Tested on: TAZ2
# Conditions: chemical shift mapping
substance,measurement,value
p53(14–28): p53(14–28) peptide used in earlier chemical shift mapping,binding region on TAZ2,"hydrophobic surface at the interface between the α1, α2, and α3 helices"
